Values quoted from earlier work in publication PMC7285913, “In vitro hepatic biotransformation of the algal toxin pectenotoxin-2” (Toxicon: X, 2020).

Settings: compared with PTXs given TEF of 1; ref Alexander et al., 2009; cited from earlier work

For “7-epi-pectenotoxin-2 seco acid [7-epi-PTX-2 SA]”, the “relative toxicity” value is given as “much less toxic”.
